Measured values: ChEMBL document CHEMBL1148443, “Importance of phenolic address groups in opioid kappa receptor selective antagonists” (J Med Chem, 2004)

The chains behind the UniProt entries cited, without tags or fusion partners.
UniProt P33535, whole entry: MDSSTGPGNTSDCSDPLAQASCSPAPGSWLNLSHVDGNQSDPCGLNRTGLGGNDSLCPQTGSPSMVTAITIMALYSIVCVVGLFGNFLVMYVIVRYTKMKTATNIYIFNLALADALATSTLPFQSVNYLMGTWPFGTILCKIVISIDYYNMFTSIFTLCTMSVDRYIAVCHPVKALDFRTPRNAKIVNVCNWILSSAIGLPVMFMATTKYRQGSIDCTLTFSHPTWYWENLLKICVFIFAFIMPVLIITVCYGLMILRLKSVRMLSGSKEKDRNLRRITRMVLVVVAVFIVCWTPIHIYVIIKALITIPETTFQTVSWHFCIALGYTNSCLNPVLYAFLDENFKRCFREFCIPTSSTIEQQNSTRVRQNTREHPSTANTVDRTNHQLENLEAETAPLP

Target: Mu-type opioid receptor (Rattus norvegicus, UniProt P33535)
Test: Binding affinity of compound for Opioid receptor mu 1 was determined using [3H]DAMGO as radioligand from rat brain tissue
Procedure, shortened: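 Competitive binding assays. Mu and delta receptors came from rat brain membranes. Kappa receptors came from guinea pig caudate membranes. Test compounds displaced the receptor-selective radioligand.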

With `Oc1ccc2c3c1O[C@H]1c4[nH]c5c(c4C[C@@]4(O)[C@@H](C2)N(CC2CC2)CC[C@]314)C[C@@]1(O)[C@H]2Cc3ccc(O)c4c3[C@@]1(CCN2CC1CC1)[C@H]5O4` [NORBINALTORPHIMINE] the Ki was 8.3 nM.
